In the assay the target is h5HT7A receptor (Homo sapiens, UniProt P34969). Nature of the assay: [3H]5-HT binding at 5HT7A receptors. The note with it: read-out: Kd of radioligand at 5HT7A receptors used in Cheng-Prusoff equation.

Chains of the proteins cited; added tags and fusions are not shown. Residues count along the entry.
UniProt P34969, 1-445 isoform P34969-2: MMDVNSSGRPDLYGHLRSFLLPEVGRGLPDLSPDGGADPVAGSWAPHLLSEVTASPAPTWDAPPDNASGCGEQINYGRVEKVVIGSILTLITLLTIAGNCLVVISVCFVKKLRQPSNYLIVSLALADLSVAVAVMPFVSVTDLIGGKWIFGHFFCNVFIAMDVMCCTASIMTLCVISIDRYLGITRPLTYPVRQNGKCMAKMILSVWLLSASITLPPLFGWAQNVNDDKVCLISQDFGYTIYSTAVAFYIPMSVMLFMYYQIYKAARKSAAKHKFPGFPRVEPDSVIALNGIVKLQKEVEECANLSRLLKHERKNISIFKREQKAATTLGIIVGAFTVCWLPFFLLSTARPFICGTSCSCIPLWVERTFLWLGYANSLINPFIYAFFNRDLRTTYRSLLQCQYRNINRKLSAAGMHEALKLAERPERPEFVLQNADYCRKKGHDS

What is called Kd is the constant that tells how readily two partners part at equilibrium. Turning to [^3H]5HT, the Kd amounted to 0.347 nM.

Source of the values: article PMC10285950 (ACS Omega, 2023).
